Assays:
[1] = biological target: SDS-activated 20S proteasome from rabbit muscle (Oryctolagus cuniculus, UniProt G1SU71+G1T4Q9); assay: Kinetic assay: inhibition of the 20S proteasome; assay type: biochemical; conditions: read-out: 20S Ki, Table II, substrate Suc-LLVY-AMC
[2] = system: C2C12 cells; assay: Inhibition of protein degradation in C2C12 cells; conditions: read-out: IC50, inhibition of protein degradation in C2C12 cells; 35S-methionine labelled cells; percent decrease in TCA soluble radioactivity; media with 50% serum

SMILES	Ki [1]	IC50 [2]
Cc1ccc(S(=O)(=O)N[C@@H](Cc2cccc3ccccc23)C(=O)N[C@@H](CC(C)C)B(O)O)cc1	0.17 nM	
CC(C)CC(NC(=O)C1CCC(=O)N1)B(O)O (stereo not shown)	480 nM	
CC(C)C[C@H](NC(=O)[C@H](Cc1cccc2ccccc12)N(C)C(=O)OCc1ccccc1)B(O)O	0.95 nM	950 nM
CC(=O)N[C@@H](CC(C)C)C(=O)N[C@@H](Cc1cccc2ccccc12)C(=O)N[C@@H](CC(C)C)B(O)O	0.022 nM	240 nM
CC(C)C[C@@H](NC(=O)[C@H](Cc1cccc2ccccc12)NC(=O)N1CCOCC1)B(O)O	72.5 nM	
CC(C)C[C@H](NC(=O)[C@H](Cc1ccc(OCc2ccccn2)cc1)NC(=O)N1CCOCC1)B(O)O	0.2 nM	
CC(=O)N[C@@H](Cc1cccc2ccccc12)C(=O)N[C@@H](CC(C)C)B(O)O	0.13 nM	106 nM
